Reference: patent publication US8987249B2, “Substituted 2-Aza-bicyclo[2.2.1]heptane-3-carboxylic acid (benzyl-cyano-methyl)-amides inhibitors of Cathepsin C” (Boehringer Ingelheim International GmbH, priority 2013, dated 2015)

Sequences of proteins named here, by UniProt entry; tags and fusion partners are left off. Residues count along the entry.
UniProt P53634, 395-463: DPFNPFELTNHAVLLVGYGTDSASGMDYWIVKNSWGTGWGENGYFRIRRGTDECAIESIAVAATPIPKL
UniProt P53634, 25-134: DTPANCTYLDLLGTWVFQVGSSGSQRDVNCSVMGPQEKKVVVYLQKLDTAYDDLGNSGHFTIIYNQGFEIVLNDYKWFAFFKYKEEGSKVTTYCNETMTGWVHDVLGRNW
UniProt P53634, 231-394: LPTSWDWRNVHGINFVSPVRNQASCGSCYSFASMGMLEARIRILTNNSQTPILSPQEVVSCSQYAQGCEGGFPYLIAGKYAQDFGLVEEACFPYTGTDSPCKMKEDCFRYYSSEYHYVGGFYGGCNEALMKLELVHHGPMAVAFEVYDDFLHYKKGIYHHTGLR

Each compound was assayed against recombinant human DPPI (Cathepsin C) (Homo sapiens (Human), UniProt P53634) (assay: Inhibition of human DPPI (Cathepsin C)). Conditions: substrate Gly-Arg-AMC.
Type: biochemical
Experimental: Inhibition of Human DPPI (Cathepsin C)
Bovine serum albumin (BSA; Prod. No. A3059) and Dithiothreitol (DTT; Prod. No D0632) were from Sigma. […] The DPP1 inhibitor Gly-Phe-DMK was purchased from MP Biomedicals (Prod.-No. 03DK00625). The recombinant human DPPI was purchased from Prozymex. All other materials were of highest grade commercially available.
The following buffers were used: MES buffer: 25 mM MES, 50 mM NaCl, 5 mM DTT, adjusted to pH 6.0, containing 0.1% BSA; TAGZyme Buffer: 20 mM NaH2PO4, 150 mM NaCl adjusted to pH 6.0 with HCl
Then, 5 μL of substrate in MES buffer (final concentration 50 μM) were added. The microtiter plates were then incubated at room temperature for 30 min. Then, the reaction was stopped by adding 10 μL of Gly-Phe-DMK in MES-buffer (final concentration 1 μM).
The analysis of the data was performed by calculating the percentage of fluorescence in the presence of test compound in comparison to the fluorescence of the vehicle control after subtracting the background fluorescence using the following formula: (RFU(sample)−RFU(background))*100/(RFU(control)−RFU(background))
Data from these calculations were used to generate IC50 values for inhibition of DPPI, respectively.

IC50	SMILES
5.9 nM	COCCn1cc(-c2ccc(C[C@@H](C#N)NC(=O)[C@H]3N[C@@H]4CC[C@H]3C4)c(F)c2)cn1 [Example 44]
9.3 nM	Cc1cc(-c2ccc(C[C@@H](C#N)NC(=O)[C@H]3N[C@@H]4CC[C@H]3C4)c(F)c2)n(C)n1 [Example 63]
9.4 nM	Cc1c(-c2ccc(C[C@@H](C#N)NC(=O)[C@H]3N[C@@H]4CC[C@H]3C4)c(F)c2)cnn1C [Example 65]
9.7 nM	CC(C)n1cc(-c2ccc(CC(C#N)NC(=O)[C@H]3N[C@@H]4CC[C@H]3C4)c(F)c2)cn1 (stereo partly drawn) [Example 68]
18.7 nM	COc1cccc(-c2cn(-c3ccc(C[C@@H](C#N)NC(=O)[C@H]4N[C@@H]5CC[C@H]4C5)c(F)c3)nn2)c1 [Example 94]
19.9 nM	COCCn1cc(-c2ccc(CC(C#N)NC(=O)[C@H]3N[C@@H]4CC[C@H]3C4)c(F)c2)cn1 (stereo partly drawn) [Example 97]
4.1 nM	CN1Cc2cc(-c3ccc(C[C@@H](C#N)NC(=O)[C@H]4N[C@@H]5CC[C@H]4C5)c(F)c3)ccc2S1(=O)=O [Example 169]
9.8 nM	C[C@H]1CN(C)CCN1c1ccc(C[C@@H](C#N)NC(=O)[C@H]2N[C@@H]3CC[C@H]2C3)c(F)c1 [Example 188]
11.3 nM	CC1CN(C)CCN1c1ccc(C[C@@H](C#N)NC(=O)[C@H]2N[C@@H]3CC[C@H]2C3)c(F)c1 (stereo partly drawn) [Example 192]
37.4 nM	N#C[C@H](Cc1ccc(C2CCN(Cc3ccccc3)CC2)cc1F)NC(=O)[C@H]1N[C@@H]2CC[C@H]1C2 [Example 219]
5.9 nM	N#C[C@H](Cc1ccc(N2CCCN3CCCC3C2)cc1F)NC(=O)[C@H]1N[C@@H]2CC[C@H]1C2 (stereo partly drawn) [Example 271]
9.3 nM	N#C[C@H](Cc1ccc(-n2cc(C(F)(F)F)cn2)cc1F)NC(=O)[C@H]1N[C@@H]2CC[C@H]1C2 [Example 285]
9.3 nM	N#C[C@H](Cc1ccc(N2CCN(C3CCOC3)CC2)cc1F)NC(=O)[C@H]1N[C@@H]2CC[C@H]1C2 (stereo partly drawn) [Example 331]

SMILES	IC50
N#C[C@H](Cc1ccc(-c2ccc(S(=O)(=O)N3CCC(F)(F)CC3)cc2)cc1F)NC(=O)[C@H]1N[C@@H]2CC[C@H]1C2 [Example 246]	5.9 nM
CN1CCC(C)(c2ccc(C[C@@H](C#N)NC(=O)[C@H]3N[C@@H]4CC[C@H]3C4)c(F)c2)CC1 [Example 321]	56.8 nM
